Mean absorbance data for one substance are collected here from PMC11407402.

Chains of the proteins cited; added tags and fusions are not shown. Residues count along the entry.
UniProt P02745, 23-245: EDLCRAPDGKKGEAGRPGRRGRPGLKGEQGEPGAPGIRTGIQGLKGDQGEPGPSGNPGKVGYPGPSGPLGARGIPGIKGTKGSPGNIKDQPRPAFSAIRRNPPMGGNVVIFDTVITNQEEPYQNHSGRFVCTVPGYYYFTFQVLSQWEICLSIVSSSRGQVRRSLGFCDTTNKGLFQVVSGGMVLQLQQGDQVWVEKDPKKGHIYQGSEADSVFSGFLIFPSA
UniProt P02746, 28-253: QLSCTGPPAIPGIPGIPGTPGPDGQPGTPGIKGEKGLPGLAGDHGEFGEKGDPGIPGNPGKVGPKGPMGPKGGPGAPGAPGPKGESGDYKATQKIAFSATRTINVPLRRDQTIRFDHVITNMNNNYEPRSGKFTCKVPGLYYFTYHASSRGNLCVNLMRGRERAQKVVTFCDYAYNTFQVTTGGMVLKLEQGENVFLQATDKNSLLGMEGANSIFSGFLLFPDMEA
UniProt P02747, 29-245: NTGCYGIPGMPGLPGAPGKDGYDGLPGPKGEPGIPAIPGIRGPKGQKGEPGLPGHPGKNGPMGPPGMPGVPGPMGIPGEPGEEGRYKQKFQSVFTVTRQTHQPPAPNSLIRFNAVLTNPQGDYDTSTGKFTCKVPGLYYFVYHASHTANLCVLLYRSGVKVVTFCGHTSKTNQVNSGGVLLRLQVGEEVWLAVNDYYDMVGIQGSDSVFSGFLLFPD

Experiment [1] has as its target anti-CD20 antibody (rituximab V regions), wild-type human IgG3 (with R435H) (human). The experiment is described as follows: ELISA. A general note: ELISA stands for enzyme-linked immunosorbent assay.
Experiment [2] deals with anti-CD20 antibody (rituximab V regions), wild-type human IgG1 (human). The experiment can be described thus: ELISA.

With “human C1q, coupled to horseradish peroxidase (from UniProt P02745;P02746;P02747) (complex)”, the mean absorbance in experiment [1] came out at 2.97; in experiment [2], 0.579.
